Measured values taken from ChEMBL document CHEMBL5338724, “METTL3 from Target Validation to the First Small-Molecule Inhibitors: A Medicinal Chemistry Journey” (J Med Chem, 2023).

Assay: Selectivity ratio of IC50 for inhibition of METTL3/METTL14 (unknown origin) to IC50 for inhibition of PRMT5/MEP50 (unknown origin)

Cn1ccc(-c2cn([C@@H]3O[C@H](COc4ccc5ccc(N6CCC6)nc5c4)[C@@H](O)[C@@H]3F)c3ncnc(N)c23)n1
Ratio IC50: > 100
